{
  "source": "paper PMC5681660",
  "about": "“Reduced hepatitis B and D viral entry using clinically applied drugs as novel inhibitors of the bile acid transporter NTCP” (Scientific Reports, 2017)",
  "note": "Structures can show the parent of a compound that is named as a salt.",
  "data": [
    {"target": "T1, human NTCP (Homo sapiens, UniProt Q14973)", "T1 sequence (Q14973 1-349)": "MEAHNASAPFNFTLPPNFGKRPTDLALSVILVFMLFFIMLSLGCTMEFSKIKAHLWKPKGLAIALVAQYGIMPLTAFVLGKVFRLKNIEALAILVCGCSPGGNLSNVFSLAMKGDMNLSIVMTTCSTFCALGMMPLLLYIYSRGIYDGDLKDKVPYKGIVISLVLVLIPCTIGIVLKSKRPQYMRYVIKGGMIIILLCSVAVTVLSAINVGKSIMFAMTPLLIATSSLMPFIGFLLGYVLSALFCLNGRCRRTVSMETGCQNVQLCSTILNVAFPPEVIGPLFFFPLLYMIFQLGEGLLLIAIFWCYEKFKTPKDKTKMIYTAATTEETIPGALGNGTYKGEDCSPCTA", "test": "Screening fluorescent competitive Myrcludex B-FITC binding assay (96-well, 10 µM drug)", "settings": "0.5 h, read-out: %NTCP binding, screening Myrcludex B-FITC binding, 10 µM drug, Prestwick library", "units": {"remaining activity at 10 µM": "%"}, "values": [
      {"smiles": "C#CCN(C)[C@H](C)Cc1ccccc1", "note": "[Selegiline hydrochloride]", "remaining activity at 10 µM": 78}
    ]},
    {"target": "T1, human NTCP", "test": "Screening fluorescent competitive Myrcludex B-FITC binding assay (96-well, 10 µM drug)", "settings": "screening Myrcludex B-FITC binding, 10 µM drug", "values": [
      {"smiles": "CN(C)CCn1nnnc1SCC1=C(C(=O)O)N2C(=O)[C@@H](NC(=O)Cc3csc(N)n3)[C@H]2SC1", "note": "[Cefotiam hydrochloride]", "B-score binding assay": -3.496},
      {"smiles": "CNC(=O)Oc1ccc2c(c1)[C@]1(C)CCN(C)[C@@H]1N2C", "note": "[Eserine hemisulfate salt]", "B-score binding assay": -1.774},
      {"smiles": "OCCN1CCN(CCCN2c3ccccc3Sc3ccc(Cl)cc32)CC1", "note": "[Perphenazine]", "B-score binding assay": -5.362},
      {"smiles": "COC1=CC(=O)C[C@@H](C)[C@]12Oc1c(Cl)c(OC)cc(OC)c1C2=O", "note": "[Griseofulvin]", "B-score binding assay": 0.055},
      {"smiles": "C#C[C@]1(O)CC[C@H]2[C@@H]3CCC4=CC(=O)CC[C@@H]4[C@H]3CC[C@@]21C", "note": "[Norethindrone]", "B-score binding assay": -1.263},
      {"smiles": "CNCCc1ccccn1.CS(=O)(=O)O.CS(=O)(=O)O", "note": "[Betahistine mesylate]", "B-score binding assay": 0.863},
      {"smiles": "O=C1[C@H](CC[C@H](O)c2ccc(F)cc2)[C@@H](c2ccc(O)cc2)N1c1ccc(F)cc1", "note": "[ezetimibe, reference compound]", "B-score binding assay": -3.653},
      {"smiles": "CC(C)C[C@H](NC(=O)[C@@H](O)[C@H](N)Cc1ccccc1)C(=O)O", "note": "[Ubenimex]", "B-score binding assay": -0.274},
      {"smiles": "COc1ccc(-c2ccc(=N)n(CCCC(=O)O)n2)cc1", "note": "[Gabazine bromide]", "B-score binding assay": -1.532},
      {"smiles": "CCOc1ccc2ccccc2c1C(=O)N[C@@H]1C(=O)N2[C@@H]1SC(C)(C)[C@@H]2C(=O)O", "note": "[Nafcillin sodium salt monohydrate]", "B-score binding assay": -2.394},
      {"smiles": "CNc1ncnc2c1ncn2[C@@H]1O[C@H](CO)[C@@H](O)[C@H]1O", "note": "[N6-methyladenosine]", "B-score binding assay": -0.333},
      {"smiles": "O=C(OCCOCCO)c1ccccc1Nc1cccc(C(F)(F)F)c1", "note": "[Etofenamate]", "B-score binding assay": -4.604},
      {"smiles": "Br.C[N+]1([O-])[C@@H]2CC(OC(=O)[C@H](CO)c3ccccc3)C[C@H]1[C@@H]1O[C@@H]12", "note": "(some centres unmarked) [Scopolamin-N-oxide hydrobromide]", "B-score binding assay": -0.39},
      {"smiles": "Cc1ccc(S(=O)(=O)NC(=O)NN2CCCCCC2)cc1", "note": "[Tolazamide]", "B-score binding assay": 1.351},
      {"smiles": "CNCC[C@@H](Oc1ccccc1C)c1ccccc1", "note": "[Tomoxetine hydrochloride]", "B-score binding assay": -1.279},
      {"smiles": "CCCOc1ccc2nc(NC(=O)OC)[nH]c2c1", "note": "[Oxibendazol]", "B-score binding assay": -1.969},
      {"smiles": "CN[C@@H]1[C@H](O[C@H]2[C@H](O[C@H]3[C@H](O)[C@@H](O)[C@H](NC(=N)N)[C@@H](O)[C@@H]3NC(=N)N)O[C@@H](C)[C@]2(O)CO)O[C@@H](CO)[C@H](O)[C@H]1O", "note": "[Dihydrostreptomycin sulfate]", "B-score binding assay": -1.128},
      {"smiles": "C#CCN(C)[C@H](C)Cc1ccccc1", "note": "[Selegiline hydrochloride]", "B-score binding assay": 0.539},
      {"smiles": "CN(Cc1cc(Br)cc(Br)c1N)C1CCCCC1", "note": "[Bromhexine hydrochloride]", "B-score binding assay": -2.362},
      {"smiles": "CCCCOc1ccc(C(=O)CCN2CCCCC2)cc1", "note": "[Dyclonine hydrochloride]", "B-score binding assay": -0.002},
      {"smiles": "CN1[C@@H]2CC(OC(=O)[C@H](CO)c3ccccc3)C[C@H]1[C@@H]1O[C@@H]12.Cl", "note": "(some centres unmarked) [Scopolamine hydrochloride]", "B-score binding assay": -0.469},
      {"smiles": "COCC1=C(C(=O)OC(C)OC(=O)OC(C)C)N2C(=O)[C@@H](NC(=O)/C(=N\\OC)c3csc(N)n3)[C@H]2SC1", "note": "(some centres unmarked) [Cefpodoxime proxetil]", "B-score binding assay": 0.322},
      {"smiles": "NC(=O)c1cnccn1", "note": "[Pyrazinamide]", "B-score binding assay": -2.276},
      {"smiles": "CN1CCC(=C2c3ccccc3Sc3ccccc32)CC1", "note": "[Pimethixene maleate]", "B-score binding assay": 1.14},
      {"smiles": "COC(c1ccccc1)(c1ccccc1)[C@H](Oc1nc(C)cc(C)n1)C(=O)O", "note": "[Ambrisentan]", "B-score binding assay": 0.65},
      {"smiles": "CC(C)[C@H](N)C(=O)OCCOCn1cnc2c(=O)[nH]c(N)nc21", "note": "[Valacyclovir hydrochloride]", "B-score binding assay": -0.682},
      {"smiles": "CS(=O)(=O)c1ccc([C@@H](O)[C@@H](CF)NC(=O)C(Cl)Cl)cc1", "note": "[Florfenicol]", "B-score binding assay": -1.225},
      {"smiles": "CN(C)C(=O)Oc1cc(OC(=O)N(C)C)cc(C(O)CNC(C)(C)C)c1.Cl", "note": "(centres unmarked) [Bambuterol hydrochloride]", "B-score binding assay": -0.174},
      {"smiles": "N[C@@H](C(=O)N[C@@H]1C(=O)N2C(C(=O)O)=C(Cl)CC[C@H]12)c1ccccc1", "note": "[Loracarbef]", "B-score binding assay": 1.571},
      {"smiles": "CN(CCCN1c2ccccc2CCc2ccccc21)CC(=O)c1ccc(Cl)cc1", "note": "[Lofepramine]", "B-score binding assay": -1.093},
      {"smiles": "C[C@]12CC[C@@H]3c4ccc(O)cc4CC[C@H]3[C@@H]1CC[C@@H]2O", "note": "[Estradiol-17 beta]", "B-score binding assay": -1.447},
      {"smiles": "Nc1c2ccccc2nc2ccccc12", "note": "[Aminacrine]", "B-score binding assay": 0.016},
      {"smiles": "CC[N+](C)(CC)CCOC(=O)C1c2ccccc2Oc2ccccc21", "note": "[Methantheline bromide]", "B-score binding assay": -0.235},
      {"smiles": "CN[C@@H]1[C@H](O)[C@H](NC)[C@H]2O[C@@]3(O)C(=O)C[C@@H](C)O[C@H]3O[C@@H]2[C@H]1O.Cl.Cl", "note": "[Spectinomycin dihydrochloride]", "B-score binding assay": -2.764},
      {"smiles": "NC(=O)c1ccc[n+]([C@@H]2O[C@H](COP(=O)([O-])OP(=O)(O)OC[C@H]3O[C@@H](n4cnc5c(N)ncnc54)[C@H](O)[C@@H]3O)[C@@H](O)[C@H]2O)c1", "note": "[Nadide]", "B-score binding assay": -0.892},
      {"smiles": "COCCOC(=O)C1=C(C)NC(C)=C(C(=O)OC/C=C/c2ccccc2)C1c1cccc([N+](=O)[O-])c1", "note": "(centres unmarked) [Cilnidipine]", "B-score binding assay": -0.361},
      {"smiles": "CCN(CC)C(=S)SSC(=S)N(CC)CC", "note": "[Disulfiram]", "B-score binding assay": -1.387},
      {"smiles": "CCOC(=O)C1=C(C)NC(C)=C(C(=O)OC)C1c1cccc(Cl)c1Cl", "note": "(centres unmarked) [Felodipine]", "B-score binding assay": -1.258},
      {"smiles": "C[C@@H]1CN(c2c(F)c(N)c3c(=O)c(C(=O)O)cn(C4CC4)c3c2F)C[C@H](C)N1", "note": "[Sparfloxacin]", "B-score binding assay": -0.128},
      {"smiles": "Cc1cccc(Nc2ccncc2S(=O)(=O)NC(=O)NC(C)C)c1", "note": "[Torsemide]", "B-score binding assay": 0.549},
      {"smiles": "CCCCCCCCCCCCCCCC[N+](C)(C)CCN(Cc1ccc(OC)cc1)c1ncccn1", "note": "[Thonzonium bromide]", "B-score binding assay": -4.644},
      {"smiles": "CC(=O)NC[C@H]1CN(c2ccc(N3CCOCC3)c(F)c2)C(=O)O1", "note": "[Linezolid]", "B-score binding assay": -1.404},
      {"smiles": "C=C(NC(=O)C(=C)NC(=O)c1csc(C2=N[C@@H]3c4csc(n4)[C@H]4NC(=O)c5csc(n5)[C@H]([C@](C)(O)[C@@H](C)O)NC(=O)[C@H]5CSC(=N5)/C(=C/C)NC(=O)[C@H]([C@@H](C)O)NC(=O)c5csc(n5)[C@]3(CC2)NC(=O)[C@H](C)NC(=O)C(=C)NC(=O)[C@H](C)NC(=O)[C@H]([C@@H](C)CC)N[C@@H]2C=Cc3c([C@H](C)O)cc(nc3[C@H]2O)C(=O)O[C@@H]4C)n1)C(N)=O", "note": "[Thiostrepton]", "B-score binding assay": -19.121},
      {"smiles": "CN(C)CCCC1(c2ccc(F)cc2)OCc2cc(C#N)ccc21", "note": "(centres unmarked) [Citalopram Hydrobromide]", "B-score binding assay": -0.075},
      {"smiles": "CCNCC(O)c1cccc(O)c1", "note": "(centres unmarked) [Etilefrine hydrochloride]", "B-score binding assay": -0.371},
      {"smiles": "C[C@H](N)[C@H](O)c1cccc(O)c1", "note": "[Metaraminol bitartrate]", "B-score binding assay": -4.813}
    ]},
    {"target": "T1, human NTCP", "test": "Screening fluorescent competitive Myrcludex B-FITC binding assay (96-well, 10 µM drug)", "settings": "screening Myrcludex B-FITC binding, 10 µM drug, Prestwick library", "units": {"%NTCP binding": "%"}, "values": [
      {"smiles": "CNc1ncnc2c1ncn2[C@@H]1O[C@H](CO)[C@@H](O)[C@H]1O", "note": "[N6-methyladenosine]", "%NTCP binding": 74.8568},
      {"smiles": "CN1[C@@H]2CC(OC(=O)[C@H](CO)c3ccccc3)C[C@H]1[C@@H]1O[C@@H]12.Cl", "note": "(some centres unmarked) [Scopolamine hydrochloride]", "%NTCP binding": 76.4424},
      {"smiles": "CN(C)C(=O)Oc1cc(OC(=O)N(C)C)cc(C(O)CNC(C)(C)C)c1.Cl", "note": "(centres unmarked) [Bambuterol hydrochloride]", "%NTCP binding": 58.7751},
      {"smiles": "N[C@@H](C(=O)N[C@@H]1C(=O)N2C(C(=O)O)=C(Cl)CC[C@H]12)c1ccccc1", "note": "[Loracarbef]", "%NTCP binding": 88.1266}
    ]},
    {"target": "T1, human NTCP", "test": "Screening fluorescent competitive Myrcludex B-FITC binding assay (96-well, 10 µM drug)", "settings": "screening Myrcludex B-FITC binding, 10 µM drug; B-score", "values": [
      {"smiles": "CN1CCN(c2c(F)cc3c(=O)c(C(=O)O)cn(CCF)c3c2F)CC1", "note": "[Fleroxacin]", "B-score binding assay": 1.459},
      {"smiles": "CNCC(O)c1ccc(OC(=O)C(C)(C)C)c(OC(=O)C(C)(C)C)c1", "note": "(centres unmarked) [Dipivefrin hydrochloride]", "B-score binding assay": 2.145}
    ]}
  ]
}
